Our source for the GFP response vs DMSO values is PubChem BioAssay AID2066 (NMMLSC, 2009).

This is a selection; strong and weak results do not stand in their true shares. Some structures show a salt or complex split into parts, the way the source records it. Active and inactive are the calls of the source.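 The calls were made as follows: active = GFP response relative to DMSO above a set limit, near screen average plus 3 SD (cut at about 150% in these data); inconclusive = fewer than 70 cells counted for the yeast strain; inactive = the rest.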

This assay is described as follows: yeast AGP1-GFP level changes, GLN3 branch – cell-based, multiplex flow cytometry, S. cerevisiae, MLPCN library, primary screen (AID 2066).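 Also: median GFP channel fluorescence of the gated AGP1 strain per well.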 Conditions: 3 h, at 10 µM, hits give high values, GFP as percent of DMSO wells. Background: Flow cytometry measures light scatter and fluorescence of single cells or particles in a stream.
For the compound `CCN(CC)CCCOC(=O)C(O)(c1ccccc1)c1ccccc1`, the GFP response vs DMSO is inactive: 106%.

As for `Cc1cc(C)cc(OP(C)(N)=O)c1` (stereo not given), the GFP response vs DMSO is inactive: 100%.

In the case of `COc1ccccc1OP(C)(=O)Nc1cc(Cl)ccc1C` (stereo not given), the GFP response vs DMSO is inactive: 102%.

Regarding `COc1ccccc1OP(C)(=O)Nc1ccc(C)cc1` (stereo not given), the GFP response vs DMSO was inactive: 90.4%.

Turning to `Cc1ccc(NP(C)(=O)Oc2ccccc2)c(C)c1` (stereo not given), the GFP response vs DMSO was inactive: 94.3%.

Turning to `CCOC(=O)c1ccc(NP(C)(=O)Oc2ccccc2)cc1` (stereo not given), the GFP response vs DMSO is inactive: 100%.

Take `O=[N+]([O-])c1ccc2c(c1)C=Nc1ccccc1O2`: the GFP response vs DMSO is inactive: 98.9%.

With `CC(C)(C)c1ccc(OP(C)(=O)Nc2ccc(SC(F)(F)F)cc2)cc1` (stereo not given), the GFP response vs DMSO was inactive: 91.7%.

Consider `Cc1cccc(C)c1OP(C)(N)=O` (stereo not given), for which the GFP response vs DMSO is inactive: 103%.

As for `O=[N+]([O-])c1cc([N+](=O)[O-])c(Nc2cccnc2)c([N+](=O)[O-])c1`, the GFP response vs DMSO is inactive: 81%.

For `CP(=O)(Nc1ccccc1Br)Oc1ccccc1` (stereo not given), the GFP response vs DMSO is inactive: 98.8%.

Regarding `COc1ccccc1OP(C)(=O)Nc1ccccc1` (stereo not given), the GFP response vs DMSO is inactive: 105%.

Consider `CP(=S)(Nn1cnnc1)Oc1ccccc1` (stereo not given), for which the GFP response vs DMSO was inactive: 97.4%.

`CP(=O)(Nc1ccccn1)Oc1ccc(Cl)cc1` (stereo not given): the GFP response vs DMSO was inactive: 95.7%.

In the case of `O=[N+]([O-])c1cc([N+](=O)[O-])c(O)c([N+](=O)[O-])c1.c1ccc(Oc2ccncc2)cc1`, the GFP response vs DMSO was inactive: 104%.

As to `CCOC(=O)c1ccc(NP(C)(=O)Oc2ccc(OC)cc2)cc1` (stereo not given), the GFP response vs DMSO is inactive: 96%.

`CCOP(C)(=S)SCC(=O)NC(C)C(=O)O` (stereo not given): the GFP response vs DMSO is inactive: 110%.

Turning to `CP(=O)(NC(=O)Nc1ccccc1)Oc1ccccc1` (stereo not given), the GFP response vs DMSO is inactive: 95%.

Turning to `CCc1ccc(OP(C)(=O)N2CCN(c3ccc([N+](=O)[O-])cc3)CC2)cc1` (stereo not given), the GFP response vs DMSO is inactive: 101%.

On to `Cc1cc(C)cc(OP(C)(=O)Nc2ccc(SC(F)(F)F)cc2)c1` (stereo not given), for which the GFP response vs DMSO is inactive: 107%.

As for `CP(=O)(Nc1ccc(SC(F)(F)F)cc1)Oc1ccc(Cl)cc1` (stereo not given), the GFP response vs DMSO was inactive: 104%.

As to `Cc1cccc(C)c1OP(C)(=O)Nc1ccc(SC(F)(F)F)cc1` (stereo not given), the GFP response vs DMSO is inactive: 90%.

On to `CP(=O)(Oc1ccccc1)OC(c1ccccc1)C(F)(F)F` (stereo not given), for which the GFP response vs DMSO was inactive: 98.9%.

As for `Cc1nc2ccc3ccccc3c2s1.O=[N+]([O-])c1cc([N+](=O)[O-])c(O)c([N+](=O)[O-])c1`, the GFP response vs DMSO is inactive: 91%.

As to `O=[N+]([O-])c1cc([N+](=O)[O-])c(-c2cnn(-c3ccccc3)c2)c([N+](=O)[O-])c1`, the GFP response vs DMSO was inactive: 92.9%.

For the compound `O=[N+]([O-])c1cc([N+](=O)[O-])c(-n2nnc3ccccc32)c([N+](=O)[O-])c1`, the GFP response vs DMSO was inactive: 99.7%.

In the case of `CCCOc1ccc(NP(C)(=O)Oc2ccc(Cl)cc2)cc1` (stereo not given), the GFP response vs DMSO was inactive: 106%.

Consider `CP(=O)(Nc1ccc(SC(F)(F)F)cc1)Oc1ccccc1` (stereo not given), for which the GFP response vs DMSO was inactive: 101%.

Regarding `CN1CCCCC1COC(=O)C1(O)c2ccccc2CCc2ccccc21` (stereo not given), the GFP response vs DMSO is inactive: 92.6%.

As to `COc1ccccc1OP(C)(=O)Nc1c(C)cccc1C` (stereo not given), the GFP response vs DMSO was inactive: 102%.

In the case of `CC1=C2N=C(C=C3N=C(C(C)=C4[N-][C@@](C)([C@@H]5N=C1[C@](C)(CCC(=O)NC[C@@H](C)OP(=O)([O-])O[C@H]1[C@@H](O)[C@@H](n6cnc7cc(C)c(C)cc76)O[C@@H]1CO)[C@H]5CC(N)=O)[C@@](C)(CC(N)=O)[C@@H]4CCC(N)=O)[C@@](C)(CC(N)=O)[C@@H]3CCC(N)=O)C(C)(C)[C@@H]2CCC(N)=O.[C-]#N.[Co+3]`, the GFP response vs DMSO was inactive: 76.7%.

`O=[N+]([O-])c1cc([N+](=O)[O-])c(Nc2nnnn2CCO)c([N+](=O)[O-])c1`: the GFP response vs DMSO is inactive: 102%.

`CCOC(=O)C(CC)C1=NC(C)(C)Cc2ccccc21.O=[N+]([O-])c1cc([N+](=O)[O-])c(O)c([N+](=O)[O-])c1` (stereo not given): the GFP response vs DMSO is inactive: 105%.

Take `CC1=NCCc2c1[nH]c1ccccc21.O=[N+]([O-])c1cc([N+](=O)[O-])c(O)c([N+](=O)[O-])c1`: the GFP response vs DMSO was inactive: 101%.

As for `O=C(O)c1cccc(Nc2c([N+](=O)[O-])cc([N+](=O)[O-])cc2[N+](=O)[O-])c1`, the GFP response vs DMSO is inactive: 104%.

As for `Cc1ccc(C)c(NP(C)(=O)Oc2ccccc2)c1` (stereo not given), the GFP response vs DMSO was inactive: 104%.

For `Cc1cc(C)cc(OP(C)(=O)Nc2ccccn2)c1` (stereo not given), the GFP response vs DMSO was inactive: 95.5%.

Take `CP(=O)(Nc1cccc(Br)c1)Oc1ccccc1` (stereo not given): the GFP response vs DMSO was inactive: 112%.

Consider `CCOC(=O)c1ccc(NP(C)(=O)Oc2cc(C)cc(C)c2)cc1` (stereo not given), for which the GFP response vs DMSO is inactive: 101%.

As for `Cc1cc(C)cc(OP(C)(=O)Nc2ccc(C)cc2C)c1` (stereo not given), the GFP response vs DMSO was inactive: 97.4%.

For the compound `COc1ccccc1OP(C)(=O)Nc1cccc(Br)c1` (stereo not given), the GFP response vs DMSO is inactive: 115%.

Consider `COc1ccc2c(c1O)-c1c(O)c(OC)cc3c1[C@H](C2)[N+](C)(C)CC3.O=[N+]([O-])c1cc([N+](=O)[O-])c([O-])c([N+](=O)[O-])c1[O-]`, for which the GFP response vs DMSO is inactive: 95.5%.

As to `O=C(OC1CN2CCC1CC2)c1ccc([N+](=O)[O-])cc1` (stereo not given), the GFP response vs DMSO is inactive: 101%.

With `O=C(OCCN1CCN(CCOCc2ccccc2)CC1)C(O)(c1ccccc1)c1ccccc1`, the GFP response vs DMSO is inactive: 101%.

Take `CP(=O)(Nc1ccccc1F)Oc1ccccc1` (stereo not given): the GFP response vs DMSO is inactive: 82%.

Consider `CC(C)c1ccc(OP(C)(=O)Nc2ccc(SC(F)(F)F)cc2)cc1` (stereo not given), for which the GFP response vs DMSO was inactive: 105%.

As for `CP(=O)(Nc1ccccc1)Oc1ccc(F)cc1` (stereo not given), the GFP response vs DMSO was inactive: 101%.

Turning to `O=[N+]([O-])c1cc([N+](=O)[O-])c(OC2CCCCC2O)c([N+](=O)[O-])c1` (stereo not given), the GFP response vs DMSO is inactive: 101%.

Consider `CCCCCOc1ccc(NP(C)(=O)Oc2ccc(Cl)cc2Cl)cc1` (stereo not given), for which the GFP response vs DMSO is inactive: 115%.

Regarding `CCN(CC)CCCOC(=O)C(O)(c1ccccc1)C1CCCCC1` (stereo not given), the GFP response vs DMSO was inactive: 105%.

As to `CCOC(=O)c1ccc(NP(C)(=O)Oc2ccc(F)cc2)cc1` (stereo not given), the GFP response vs DMSO was inactive: 105%.

In the case of `COc1ccc(OP(C)(=O)Nc2ccc(SC(F)(F)F)cc2)cc1` (stereo not given), the GFP response vs DMSO is inactive: 97.9%.

On to `O=[N+]([O-])c1ccc(OP2(=O)COCCO2)cc1` (stereo not given), for which the GFP response vs DMSO is inactive: 95.1%.

`O=[N+]([O-])c1cc([N+](=O)[O-])c(NCC2CCS(=O)(=O)C2)c([N+](=O)[O-])c1` (stereo not given): the GFP response vs DMSO is inactive: 98%.

In the case of `CN(C)CCOC(=O)C(O)(c1ccccc1)C1CCCCC1` (stereo not given), the GFP response vs DMSO was inactive: 107%.

Consider `COc1ccc(NP(C)(=O)Oc2ccccc2OC)cc1` (stereo not given), for which the GFP response vs DMSO is inactive: 103%.

For `COc1ccc(OP(C)(=O)Nc2cccc(Br)c2)cc1` (stereo not given), the GFP response vs DMSO is inactive: 104%.

For the compound `Cc1ccccc1NP(C)(=O)Nc1ccccc1C`, the GFP response vs DMSO was inactive: 90.4%.

For the compound `CP(=O)(Nc1ccc2c(c1)OCCO2)Oc1ccccc1` (stereo not given), the GFP response vs DMSO was inactive: 94.8%.

Take `CCOP(C)(=S)SCC(=O)NC(C)(CC)C(=O)O` (stereo not given): the GFP response vs DMSO is inactive: 103%.

Turning to `CP(=O)(Nc1ccc(SC(F)(F)F)cc1)Oc1ccc(F)cc1` (stereo not given), the GFP response vs DMSO was inactive: 104%.

Take `CN(C)C(=O)c1c([N+](=O)[O-])cc([N+](=O)[O-])cc1[N+](=O)[O-]`: the GFP response vs DMSO was inactive: 103%.

As for `COc1ccccc1OP(C)(=O)Nc1ccccc1Br` (stereo not given), the GFP response vs DMSO is inactive: 109%.

As for `CC(C)(C)c1ccc(OP(C)(=O)O)cc1`, the GFP response vs DMSO was inactive: 103%.

As for `CP(=O)(Nc1ccc(Cl)cc1)Oc1ccc(F)cc1` (stereo not given), the GFP response vs DMSO is inactive: 75.4%.

As to `O=C(OCCCN1CCCC1)C(O)(c1ccccc1)C1CCCCC1` (stereo not given), the GFP response vs DMSO is inactive: 110%.

In the case of `CP(=O)(Oc1ccccc1)N1CCOC1=O` (stereo not given), the GFP response vs DMSO was inactive: 102%.

Regarding `CCc1ccc(OP(C)(=O)Nc2cccnc2)cc1` (stereo not given), the GFP response vs DMSO was inactive: 99.1%.

Regarding `COc1ccc(OP(C)(=O)Nc2ccc(Br)cc2)cc1` (stereo not given), the GFP response vs DMSO was inactive: 96.3%.

In the case of `CCOC(=O)c1ccc(NP(C)(=O)Oc2ccc(Cl)cc2)cc1` (stereo not given), the GFP response vs DMSO is inactive: 92.3%.

With `CP(=O)(OC12CC3CC(CC(C3)C1)C2)OC12CC3CC(CC(C3)C1)C2`, the GFP response vs DMSO is inactive: 103%.

On to `Nc1ccc2c(ccc3cccnc32)n1.O=[N+]([O-])c1cc([N+](=O)[O-])c(O)c([N+](=O)[O-])c1`, for which the GFP response vs DMSO was inactive: 110%.

On to `CP(=O)(Nc1ccc(Cl)cc1Cl)Oc1ccccc1` (stereo not given), for which the GFP response vs DMSO is inactive: 101%.

In the case of `CP(=O)(OCCOc1ccccc1)OCCOc1ccccc1`, the GFP response vs DMSO was inactive: 108%.

With `Cc1nc2ccc3ccccc3c2o1.O=[N+]([O-])c1cc([N+](=O)[O-])c(O)c([N+](=O)[O-])c1`, the GFP response vs DMSO was inactive: 95.7%.

On to `COc1ccccc1OP(C)(=O)Nc1ccc(C)c(C)c1` (stereo not given), for which the GFP response vs DMSO was inactive: 89.8%.

On to `COc1ccc(OP(C)(=O)Nc2ccccc2Br)cc1` (stereo not given), for which the GFP response vs DMSO is inactive: 87.1%.

For the compound `Cc1cc(C)cc(OP(C)(=O)Nc2cccc(C(F)(F)F)c2)c1` (stereo not given), the GFP response vs DMSO was inactive: 107%.

For the compound `CP(=O)(Nc1ccccn1)Oc1ccccc1` (stereo not given), the GFP response vs DMSO is inactive: 102%.

Turning to `COc1ccccc1OP(C)(=O)Nc1ccc(C)cc1C` (stereo not given), the GFP response vs DMSO is inactive: 109%.

With `Cc1c(NP(C)(=O)Oc2ccc(C(C)C)cc2)c(=O)n(-c2ccccc2)n1C` (stereo not given), the GFP response vs DMSO is inactive: 104%.

On to `O=[N+]([O-])c1cc([N+](=O)[O-])c(Nc2ccccn2)c([N+](=O)[O-])c1`, for which the GFP response vs DMSO was inactive: 90.3%.

With `COc1ccc(OP(C)(=O)Nc2ccccn2)cc1` (stereo not given), the GFP response vs DMSO is inactive: 108%.

As for `CN(C)CCOC(=O)C(O)(c1ccccc1)C1CCCC1` (stereo not given), the GFP response vs DMSO was inactive: 105%.

Regarding `COc1ccccc1OP(C)(=O)Nc1ccc(Br)cc1` (stereo not given), the GFP response vs DMSO was inactive: 109%.
